Sequences of proteins named here, by UniProt entry; tags and fusion partners are left off. Residues count along the entry.
UniProt P11362, 22-822 limits assumed: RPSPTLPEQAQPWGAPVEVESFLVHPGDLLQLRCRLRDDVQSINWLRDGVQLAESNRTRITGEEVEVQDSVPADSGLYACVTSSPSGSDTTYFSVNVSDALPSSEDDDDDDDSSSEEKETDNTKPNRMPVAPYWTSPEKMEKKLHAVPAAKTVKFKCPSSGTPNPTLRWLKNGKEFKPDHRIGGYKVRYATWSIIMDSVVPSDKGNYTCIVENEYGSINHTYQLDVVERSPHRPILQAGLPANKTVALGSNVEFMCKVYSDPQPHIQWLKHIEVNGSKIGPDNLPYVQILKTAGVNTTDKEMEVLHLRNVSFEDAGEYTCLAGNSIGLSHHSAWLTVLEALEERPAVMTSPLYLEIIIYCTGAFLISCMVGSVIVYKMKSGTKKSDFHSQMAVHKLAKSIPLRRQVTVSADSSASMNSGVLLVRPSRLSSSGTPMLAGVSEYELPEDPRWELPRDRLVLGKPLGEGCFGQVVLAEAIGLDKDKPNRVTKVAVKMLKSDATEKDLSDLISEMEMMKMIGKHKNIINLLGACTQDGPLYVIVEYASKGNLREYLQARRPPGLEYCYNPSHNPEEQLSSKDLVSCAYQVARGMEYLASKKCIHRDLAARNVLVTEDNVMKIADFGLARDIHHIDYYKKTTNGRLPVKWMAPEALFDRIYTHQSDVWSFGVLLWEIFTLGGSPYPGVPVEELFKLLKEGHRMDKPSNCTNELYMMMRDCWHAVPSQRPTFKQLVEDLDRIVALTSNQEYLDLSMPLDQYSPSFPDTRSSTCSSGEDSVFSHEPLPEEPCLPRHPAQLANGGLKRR
UniProt P35968, 20-1356 limits assumed: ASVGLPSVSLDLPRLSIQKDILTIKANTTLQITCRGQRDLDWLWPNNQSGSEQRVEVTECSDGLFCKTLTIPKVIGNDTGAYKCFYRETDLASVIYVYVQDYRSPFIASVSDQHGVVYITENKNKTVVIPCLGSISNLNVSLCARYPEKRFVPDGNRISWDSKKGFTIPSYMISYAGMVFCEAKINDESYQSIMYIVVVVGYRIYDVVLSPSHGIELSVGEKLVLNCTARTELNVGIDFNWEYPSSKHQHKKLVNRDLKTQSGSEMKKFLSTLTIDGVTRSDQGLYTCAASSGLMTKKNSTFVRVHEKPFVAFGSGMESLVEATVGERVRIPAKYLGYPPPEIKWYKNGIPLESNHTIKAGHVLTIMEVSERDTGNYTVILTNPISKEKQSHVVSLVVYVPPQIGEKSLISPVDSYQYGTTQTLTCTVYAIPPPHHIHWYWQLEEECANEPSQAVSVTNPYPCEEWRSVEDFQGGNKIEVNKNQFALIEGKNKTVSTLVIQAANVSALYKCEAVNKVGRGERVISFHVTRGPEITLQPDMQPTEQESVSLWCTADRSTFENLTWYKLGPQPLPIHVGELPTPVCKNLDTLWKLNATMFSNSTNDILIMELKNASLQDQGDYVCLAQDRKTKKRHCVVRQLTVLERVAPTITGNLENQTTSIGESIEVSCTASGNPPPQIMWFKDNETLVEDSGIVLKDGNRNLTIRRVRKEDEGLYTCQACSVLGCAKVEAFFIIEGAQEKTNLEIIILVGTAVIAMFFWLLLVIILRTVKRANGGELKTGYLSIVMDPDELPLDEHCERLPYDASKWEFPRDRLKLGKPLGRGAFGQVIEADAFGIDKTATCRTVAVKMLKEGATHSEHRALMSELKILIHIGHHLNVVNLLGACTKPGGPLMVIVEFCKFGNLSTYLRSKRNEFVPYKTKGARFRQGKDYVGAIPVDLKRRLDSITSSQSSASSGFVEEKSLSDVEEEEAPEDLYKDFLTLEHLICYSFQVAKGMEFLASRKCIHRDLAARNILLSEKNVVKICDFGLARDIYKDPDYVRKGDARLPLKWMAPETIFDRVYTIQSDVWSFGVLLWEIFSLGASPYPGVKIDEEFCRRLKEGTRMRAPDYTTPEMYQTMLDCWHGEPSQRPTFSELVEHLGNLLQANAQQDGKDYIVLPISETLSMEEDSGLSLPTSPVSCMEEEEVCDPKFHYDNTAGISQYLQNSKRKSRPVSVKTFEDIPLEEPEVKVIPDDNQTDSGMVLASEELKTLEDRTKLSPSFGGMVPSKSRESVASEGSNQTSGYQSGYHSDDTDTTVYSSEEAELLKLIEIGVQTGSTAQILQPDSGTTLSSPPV

In patent US20240156825A1:

Columns and labels:
FGFR1 = FGFR1 (Homo sapiens, UniProt P11362); conditions: read-out: FGFR1 IC50_μM; reported IC50 to FGFR1; cited from earlier work
any gene target = conditions: cited from earlier work
VEGFR2 = VEGFR2 (Homo sapiens, UniProt P35968); conditions: read-out: VEGFR2 IC50_μM, reported IC50 to VEGFR2, cited from earlier work
VEGFR2 and FGFR1 = test: Selection of compounds that selectively inhibit both VEGFR2 and FGFR1 (average relative IC50); format: biochemical;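 also: relative IC50 is the IC50 for VEGFR2 or FGFR1 divided by the next-lowest IC50 reported against any target gene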
[1] = read-out: Min IC50_μM, next lowest IC50 value to any gene target, Table 3
[2] = Table 3, selective inhibitors of VEGFR2

Row | Structure (SMILES) | IC50 (any gene target; [1]) | IC50 (VEGFR2; [2]) | avg rIC50 (VEGFR2 and FGFR1) | further results
1 | CONC(=O)c1cc(Nc2ncnn3cc(-c4nnc(C(C)C)o4)c(C(C)C)c23)c(F)cc1F [compound 11442803] |  |  |  | IC50 (FGFR1): 1 nM
2 | COc1cc2c(Nc3ccc(Cl)c(Cl)c3)ncnc2cc1OCc1nc2c(s1)CN(C)CC2 | 0.05 µM | 50 nM |  | 
3 | COc1cc(OC)cc(-c2cc3cnc(NCCCCO)cc3nc2NC(=O)NC(C)(C)C)c1 |  |  | 1.4 | 
4 | COc1cc2c(Nc3c(F)cc(Br)cc3F)ncnc2cc1OCCn1ccnn1 | 0.02 µM | 20 nM | 3.0 | IC50 (any gene target; read-out: min IC50 μM, lowest reported IC50 to any gene target): 0.02 µM
5 | Cn1cc(-c2cnn3c(N)c(-c4ccc(NC(=O)Nc5cccc(C(F)(F)F)c5)cc4)cnc23)cn1 |  |  |  | IC50 (any gene target; read-out: Min IC50_μM, next lowest IC50 value to any gene target): 0.003 µM; IC50 (VEGFR2): 0.7 nM
6 | CCN1CCC2N=C(COc3cc4ncnc(Nc5ccc(Cl)c(Cl)c5)c4cc3OC)SC2C1 (stereo not shown) | 0.05 µM | 50 nM |  | 
7 | CCN(CC)CCCCCNc1cc2nc(NC(=O)NC(C)(C)C)c(-c3cc(OC)cc(OC)c3)cc2cn1 |  |  | 1.5 | 

Read-outs that look alike come from different tables or passages of the source.
